The values below are quoted from earlier work in PMC8773819.

Data set [1] addresses β-synuclein (Homo sapiens) (UniProt Q16143).
Data set [2] has as its target α-synuclein 125-140 (Homo sapiens) (UniProt P37840).

One may read the Kd as the free concentration of one partner at which half of the binding sites on the other are occupied at equilibrium, for simple one-to-one binding. In the case of α-synuclein (from UniProt P37840), the Kd in data set [1] is 100 µM.
Consider “α-synuclein N-terminal region (from UniProt P37840)”, for which the Kd in data set [2] was 500 µM.
